Inhibition data for three compounds are collected here from PubChem BioAssay AID836 (Columbia University Molecular Screening Center, 2007).

This is a selection; strong and weak results do not stand in their true shares. Some results for these compounds are left out of this collection, so the calls shown say nothing about other tests. Active and inactive are the calls of the source.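 The calls were made as follows: active = inhibition above the batch mean plus 3 SD and confirmed as a hit by visual image inspection (cut at about 30% in these data, passing the limit was not always enough); inconclusive = above the inhibition threshold but rejected on visual inspection; inactive = the rest.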

The nature of this assay: modifiers of F-actin cytoskeleton organization, primary screen, imaging, HUVEC, phalloidin staining, high-content imaging (AID 836). The settings on record: HUVEC TNFa F-actin phalloidin imaging, at 2 µM, stronger effect = higher value.
Turning to `O=C(OC1CN2CCC1CC2)C(CO)(c1ccccc1)c1ccccc1` (stereo not drawn), the inhibition (usually the relative decrease from the control value, in per cent) is inactive: -18.3%. For `CN(C)c1cccc(C(=O)NCC2(N(C)C)CCCCC2)c1`, the inhibition was inactive: 18.9%. With `CC(C)N1C(=O)CC2(CCN(CCOC(=O)C(O)(c3ccccc3)c3ccccc3)CC2)C1=O` the figure was inactive: 3.1%.
